In patent US20100144645A1, “COMPOSITIONS AND METHODS FOR ENHANCING […] POTENCY OF […]-COMPOUNDS, A[…] ADVERSE SIDE EFFECTS, AND […] ABUSE” (SHIRE LLC, priority 2006, published 2010):

Experiments:
[1] = Oral bioavailability of hydrocodone conjugates (plasma hydrocodone plus hydromorphone); settings: rats, relative to hydrocodone
[2] = Intranasal bioavailability of hydrocodone conjugates; settings: rats, relative to hydrocodone

## (d)-Lys-(1)-Lys-Ile-Hydrocodone [(d)Lys(I)Lys-Ile-HC]
[1]
  bioavailabiltty (% HC) oral AUC: 141 % HC
  bioavailabiltty (% HC) oral Cmax: 174 % HC
[2]
  bioavailabiltty (% HC) IN AUC: 41 % HC
  bioavailabiltty (% HC) IN Cmax: 54 % HC

## Gly-Gly-Leu-Hydrocodone [Gly-Gly-Leu-HC]
[1]
  bioavailabiltty (% HC) oral AUC: 82 % HC
  bioavailabiltty (% HC) oral Cmax: 126 % HC
[2]
  bioavailabiltty (% HC) IN AUC: 77 % HC
  bioavailabiltty (% HC) IN Cmax: 62 % HC
